{
  "source": "ChEMBL document CHEMBL1629505",
  "about": "“Antiarrhythmic, serotonin antagonist and antianxiety activities of novel substituted thiophene derivatives synthesized from 2-amino-4,5,6,7-tetrahydro-N-phenylbenzo[b]thiophene-3-carboxamide” (Eur J Med Chem, 2010)",
  "tested_on": "Mus musculus",
  "experiment": "Antianxiety activity in ip dosed Albino mouse assessed as increase in locomotor activity after 30 mins relative to Diazepam",
  "assay_type": "functional",
  "data": [
    {"smiles": "CN1C(=O)CN=C(c2ccccc2)c2cc(Cl)ccc21", "note": "[DIAZEPAM]", "values": [
      {"measurement": "Ratio", "result": 1}
    ]}
  ]
}
